Experiments:
[1] = target: Melanocortin receptor 4 (Mus musculus) (UniProt P56450); assay: Agonist activity at mouse MC4R expressed in HEK293 cells assessed as induction of cAMP level at 100 uM incubated for 2 hr by alphaScreen assay relative to control; format: functional, cell-based
[2] = target: Melanocyte-stimulating hormone receptor (Mus musculus) (UniProt Q01727); assay: Agonist activity at mouse MC1R expressed in HEK293 cells assessed as induction of cAMP level at 100 uM incubated for 2 hr by alphaScreen assay relative to NDP-MSH; format: functional, cell-based

The chains behind the UniProt entries cited, without tags or fusion partners. Where a name states a change or a piece, a line headed by the entry shows the natural chain unless it says otherwise.
UniProt P56450, whole entry: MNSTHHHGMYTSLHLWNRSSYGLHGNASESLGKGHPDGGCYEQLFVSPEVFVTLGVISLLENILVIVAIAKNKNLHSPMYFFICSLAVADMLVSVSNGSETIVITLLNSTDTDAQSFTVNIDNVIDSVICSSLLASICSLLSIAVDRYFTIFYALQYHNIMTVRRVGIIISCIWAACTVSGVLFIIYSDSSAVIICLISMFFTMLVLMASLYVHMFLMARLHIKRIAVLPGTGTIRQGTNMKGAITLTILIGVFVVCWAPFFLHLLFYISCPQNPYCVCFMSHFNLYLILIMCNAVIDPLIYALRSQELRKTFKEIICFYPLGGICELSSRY
UniProt Q01727: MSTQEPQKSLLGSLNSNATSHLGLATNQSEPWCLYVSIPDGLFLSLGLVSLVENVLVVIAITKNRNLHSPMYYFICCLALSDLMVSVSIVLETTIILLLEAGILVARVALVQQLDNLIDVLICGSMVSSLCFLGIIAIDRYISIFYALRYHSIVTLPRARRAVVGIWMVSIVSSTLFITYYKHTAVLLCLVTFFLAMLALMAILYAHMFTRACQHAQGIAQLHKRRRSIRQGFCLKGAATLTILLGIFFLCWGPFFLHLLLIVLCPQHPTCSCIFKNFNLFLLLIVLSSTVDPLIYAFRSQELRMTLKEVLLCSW

Compound: CC(=O)N[C@H](Cc1ccc(I)cc1)C(=O)N[C@@H](CCCNC(=N)N)C(=O)N[C@@H](Cc1ccc2ccccc2c1)C(=O)N[C@@H](CCCNC(=N)N)C(N)=O
- Activity [1]: 25%
- Activity [2]: 25%
